Laboratory results as given in ChEMBL document CHEMBL1126016, “Inhibitors of protein kinase C. 1. 2,3-Bisarylmaleimides” (J Med Chem, 1992).

Target: Protein kinase C gamma type (Rattus norvegicus, UniProt P63319)
Assay: Inhibition of rat brain protein kinase C (PKC) with ATP and histone as substrates
How it was run: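 Rat brain PKC assayed with ATP and histone as substrates. Inhibitors were dissolved as DMSO stocks and tested in 10% aqueous DMSO final. Concentrations above 100 μM were not tested. Each point was run in triplicate, and the IC50 is the mean of at least two independent assays.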

Structure (SMILES): COC(=O)[C@@]1(O)C[C@H]2O[C@]1(C)n1c3ccccc3c3c4c(c5c6ccccc6n2c5c31)C(=O)NC4 (single isomer, unassigned) [K-252A]
- IC50: 470 nM
